In publication PMC6858373 (Scientific Reports, 2019):
Counter-ions that a name gives are not always drawn. Like-named read-outs stand apart in the source and are kept apart here.

Protein sequences, listed by entry. Tags and fused reporters are not part of them. Residues count along the entry.
UniProt Q92915, 1-252 isoform Q92915-2: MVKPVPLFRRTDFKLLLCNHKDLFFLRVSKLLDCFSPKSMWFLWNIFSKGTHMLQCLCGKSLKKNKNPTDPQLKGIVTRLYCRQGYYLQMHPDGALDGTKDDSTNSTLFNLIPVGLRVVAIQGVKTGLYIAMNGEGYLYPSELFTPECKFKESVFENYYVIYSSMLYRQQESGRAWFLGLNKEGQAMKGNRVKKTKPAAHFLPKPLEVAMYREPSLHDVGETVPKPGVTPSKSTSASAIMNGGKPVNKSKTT
UniProt Q9UQD0, 1763-1976 limits assumed: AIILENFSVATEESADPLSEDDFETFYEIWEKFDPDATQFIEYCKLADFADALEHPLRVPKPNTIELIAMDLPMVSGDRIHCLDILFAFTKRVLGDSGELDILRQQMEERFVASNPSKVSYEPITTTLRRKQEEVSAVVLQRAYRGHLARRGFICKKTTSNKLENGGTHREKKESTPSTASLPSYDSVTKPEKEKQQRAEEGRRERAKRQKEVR
UniProt P08659, whole entry N50D/N119G/S548I/K549A/L550V, looked up: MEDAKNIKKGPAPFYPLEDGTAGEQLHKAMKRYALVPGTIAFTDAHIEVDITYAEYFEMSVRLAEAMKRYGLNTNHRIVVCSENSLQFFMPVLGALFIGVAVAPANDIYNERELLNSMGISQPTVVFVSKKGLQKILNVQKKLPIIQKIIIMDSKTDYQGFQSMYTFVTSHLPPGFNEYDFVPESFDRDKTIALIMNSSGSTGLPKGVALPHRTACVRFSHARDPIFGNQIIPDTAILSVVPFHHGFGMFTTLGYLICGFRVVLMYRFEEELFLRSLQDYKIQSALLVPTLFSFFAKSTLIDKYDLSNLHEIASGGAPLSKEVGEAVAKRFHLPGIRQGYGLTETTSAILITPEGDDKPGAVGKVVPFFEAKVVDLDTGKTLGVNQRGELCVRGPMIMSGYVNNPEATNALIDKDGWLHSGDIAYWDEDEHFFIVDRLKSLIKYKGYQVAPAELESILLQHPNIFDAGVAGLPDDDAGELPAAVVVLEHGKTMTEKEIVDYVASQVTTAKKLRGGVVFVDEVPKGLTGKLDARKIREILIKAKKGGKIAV

Assays:
[1] = target: FGF14:Nav1.6 C-tail complex (Homo sapiens, UniProt Q92915+Q9UQD0); experiment: Split-luciferase complementation assay (LCA) in Clone V double stable HEK293 cells
[2] = target: full-length P. pyralis luciferase (Photinus pyralis, UniProt P08659, K549A/L550V/N119G/N50D/S548I)
in vitro = conditions: human
[3] = CC_NCI screening, full-length luciferase counter-screen, normalized to on-plate 0.3% DMSO controls
[4] = CC_NCI screening, biological replicate Set 2, normalized to on-plate 0.3% DMSO controls
[5] = CC_NCI screening, biological replicate Set 2, normalized to on-plate 0.3% DMSO controls (n=16 per plate)

With `O=c1cc(N2CCOCC2)nc2c3ccccc3ccn12` [COMPOUND 401] the “Toxicity Assay Z-score (CTB cell viability)” value (Clone V cells) was 2.21.

For `Cc1c2oc3c(C)ccc(C(=O)N[C@@H]4C(=O)N[C@H](C(C)C)C(=O)N5CCC[C@H]5C(=O)N(C)CC(=O)N(C)[C@@H](C(C)C)C(=O)O[C@@H]4C)c3nc-2c(C(=O)N[C@@H]2C(=O)N[C@H](C(C)C)C(=O)N3CCC[C@H]3C(=O)N(C)CC(=O)N(C)[C@@H](C(C)C)C(=O)O[C@@H]2C)c(N)c1=O` [Dactinomycin], the “Split Luciferase Assay % Lum Set 1” value ([1]; CC_NCI screening, LCA luminescence, biological replicate Set 1, normalized to on-plate 0.3% DMSO controls (n=16 per plate)) was 60.12% and the “Split Luciferase Assay Z-score Set 1” value ([1]; CC_NCI screening, LCA, biological replicate Set 1, normalized to on-plate 0.3% DMSO controls) was -3.22.

For `COc1cccc2c1C(=O)c1c(O)c3c(c(O)c1C2=O)C[C@@](O)(C(=O)CO)C[C@@H]3O[C@H]1C[C@H](N)[C@H](O)[C@H](C)O1` [Doxorubicin hydrochloride], the “Luciferase Assay Z-score” value [2, 3] was -2.72.

In the case of `CS(=O)(=O)CCNCc1ccc(-c2ccc3ncnc(Nc4ccc(OCc5cccc(F)c5)c(Cl)c4)c3c2)o1` [Lapatinib], the “Split Luciferase Assay % Lum Set 1” value ([1]; CC_NCI screening, biological replicate Set 1, normalized to on-plate 0.3% DMSO controls (n=16 per plate)) is reported as 116.65%.

In the case of `O=[N+]([O-])c1ccc(-c2nc(-c3ccncc3)c(-c3ccc(F)cc3)[nH]2)cc1` [PD 169316], the “Toxicity Assay Z-score (CTB cell viability)” value (Clone V cells; human) is reported as 0.13 and the viability (in vitro) is reported as 101%.

In the case of `C[C@@H](Oc1cc(-c2cnn(C3CCNCC3)c2)cnc1N)c1c(Cl)ccc(F)c1Cl` [PF-2341066], the “Luciferase Assay % Lum” value ([2]; CC_NCI screening, full-length luciferase counter-screen luminescence, normalized to on-plate 0.3% DMSO controls) is reported as 78.75% and the “Luciferase Assay Z-score” value [2, 3] is reported as -2.72.

For `Cc1ccc([N+](=O)[O-])cc1S(=O)(=O)N(C)/N=C/c1cnc2ccc(Br)cn12` [PIK 75, reference compound], the “Split Luciferase Assay Z-score Set 2” value [1, 4] was -3.82 and the “Split Luciferase Assay %Lum Set 2” value [1, 5] was 53.06%.

For `CS(=O)(=O)c1ccc(C2=C(c3ccccc3)C(=O)OC2)cc1` [ROFECOXIB], the “Split Luciferase Assay Z-score Set 2” value [1, 4] was -3.82 and the “Split Luciferase Assay %Lum Set 2” value [1, 5] was 53.06%.

In the case of CHIR 98014, the “Luciferase Assay % Lum” value [2] is reported as 78.77%, the “Luciferase Assay Z-score” value [2] is reported as -2.72 and the “Split Luciferase Assay %Lum Avg” value [1] is reported as 56.59%. For the same compound, the “Split Luciferase Assay %Lum Set 2” value [1] was 53.06% and the “Split Luciferase Assay Z-score Set 2” value [1] was -3.82.
